Reference: PubChem BioAssay AID588405 (Sanford-Burnham Center for Chemical Genomics, 2011)
Only a part is listed here, and it is no random draw. The source made the active and inactive calls.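 How the source made its calls: active means inhibition of at least 50% at 20 µM; inactive means the rest.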

Test: inhibition of PEG-3 promoter activity – cell-based, HeLa, luciferase luminescence, primary screen (AID 588405)
Settings: HeLa PEG-Prom luciferase reporter, overnight, at 20 µM, active compounds read high

**Q.** For `COc1ccc(C(=O)NCC2(N3CCCCC3)CCCCC2)c(OC)c1OC`, which inhibition is on record?
**A.** inactive: -0.77%

**Q.** With `O=C(NCC1(N2CCCCC2)CCCCC1)c1ccc(=O)[nH]c1` as the molecule, how does the inhibition read?
**A.** inactive: 14.6%

**Q.** With `CCCCn1nnnc1C(c1cccs1)N1CCC(n2c(=O)[nH]c3ccccc32)CC1` (configuration not stated) as the molecule, how does the inhibition read?
**A.** active: 71.2%

**Q.** Which inhibition does the source give for `O=C(NCC1(N2CCCCC2)CCCCC1)c1cccs1` here?
**A.** inactive: 4.63%

**Q.** For `CCCCn1nnnc1C(CC)N1CCC(n2c(=O)[nH]c3ccccc32)CC1` (configuration not stated), which inhibition is on record?
**A.** inactive: 20.5%

**Q.** Which inhibition does the source give for `CSc1ccccc1C(=O)NCC1(N2CCCCC2)CCCCC1` here?
**A.** inactive: 11.6%

**Q.** For `Cc1cccc(NC2(C#N)CCN(Cc3ccccc3)CC2)c1`, which inhibition is on record?
**A.** inactive: 0.84%

**Q.** With `O=c1[nH]c2ccccc2n1C1CCN(C(c2ccccc2)c2nnnn2C2CCCCC2)CC1` (configuration not stated) as the molecule, how does the inhibition read?
**A.** inactive: 45.4%

**Q.** With `COc1cc(C(=O)NCC2(N(C)C)CCCCC2)ccc1OC(F)F` as the molecule, how does the inhibition read?
**A.** inactive: -16%

**Q.** For `CCOC(=O)N1CCC(Nc2cccc(C)c2)CC1`, which inhibition is on record?
**A.** inactive: 16.5%

**Q.** Which inhibition does the source give for `O=c1[nH]c2ccccc2n1C1CCN(C(c2cccc3ccccc23)c2nnnn2C2CCCC2)CC1` (configuration not stated) here?
**A.** active: 62.2%

**Q.** With `CC(C)(C)n1nnnc1C(c1ccccc1)N1CCC(n2c(=O)[nH]c3ccccc32)CC1` (configuration not stated) as the molecule, how does the inhibition read?
**A.** inactive: 15.4%

**Q.** With `O=C1CCN(Cc2ccccc2)CC1` as the molecule, how does the inhibition read?
**A.** inactive: 8.19%

**Q.** For `CCOc1ccc(C)cc1CN(CCCl)CCCl`, which inhibition is on record?
**A.** inactive: 21.1%

**Q.** For `O=C(NCC1(N2CCCCC2)CCCCC1)c1ccc(F)cc1`, which inhibition is on record?
**A.** inactive: 19.3%

**Q.** Which inhibition does the source give for `CCCCOc1ccc(C(=O)NCC2(N3CCOCC3)CCCCC2)cc1` here?
**A.** inactive: -22.3%

**Q.** Which inhibition does the source give for `CCCCn1nnnc1C(c1cc2ccccc2o1)N1CCC(n2c(=O)[nH]c3ccccc32)CC1` (configuration not stated) here?
**A.** active: 77.5%

**Q.** With `O=P1(N(CCCl)CCCl)SCCCS1` as the molecule, how does the inhibition read?
**A.** inactive: 11.3%

**Q.** For `CCOC(=O)N1CCC(Nc2ccc(F)cc2)CC1`, which inhibition is on record?
**A.** inactive: -6.14%

**Q.** With `COc1ccc(NC2CCN(CCc3ccccc3)CC2)c(OC)c1` as the molecule, how does the inhibition read?
**A.** inactive: 14.7%

**Q.** Which inhibition does the source give for `O=C(NCC1(N2CCCCC2)CCCCC1)c1cccc(C(F)(F)F)c1` here?
**A.** inactive: 16.6%

**Q.** Which inhibition does the source give for `O=C(NCC1(N2CCOCC2)CCCCC1)c1cc(=O)[nH]c2ccccc12` here?
**A.** inactive: 1.23%

**Q.** For `COc1cc(C(=O)NCC2(N3CCCCC3)CCCCC2)ccc1OC(F)F`, which inhibition is on record?
**A.** inactive: 12.6%

**Q.** With `CCCCn1nnnc1C(c1cccc2ccccc12)N1CCC(n2c(=O)[nH]c3ccccc32)CC1` (configuration not stated) as the molecule, how does the inhibition read?
**A.** active: 69.3%

**Q.** For `CC(C)c1ccc(C(=O)NCC2(N3CCOCC3)CCCCC2)cc1`, which inhibition is on record?
**A.** inactive: -12.6%

**Q.** With `COc1ccc(NC2CCN(C(=O)OC(C)(C)C)CC2)cc1` as the molecule, how does the inhibition read?
**A.** inactive: -15.1%

**Q.** Which inhibition does the source give for `CN1CCN(CCOC(=O)C(O)(c2ccccc2)c2ccccc2)CC1` here?
**A.** inactive: 6.07%
